From PubChem BioAssay AID540333 (Southern Research Specialized Biocontainment Screening …, 2011)
The entries are a selection whose mix differs from that of the whole data set. Some results for these compounds are left out of this collection, so the calls shown say nothing about other tests. Activity calls are given as the source filed them. No stated cut-off is given here; in the data, active means CPE inhibition mostly above about 9.1% (no sharp cut-off); inactive means mostly below about 7.2%.

Assay: antivirals protecting cells from dengue CPE – CPE readout, HTS (AID 540333)
Conditions: Dengue virus CPE inhibition in host cells; at 20 µM; hits give high values
In the case of `CN(C)C1CCCC1OC(=O)C(O)(c1ccccc1)c1ccccc1` (stereo unspecified), the CPE inhibition is reported as inactive: 0.02%.
